Laboratory results published in patent publication US5554631A, “5-pyrrolyl-6-halogeno-2-pyridylmethylsulfinyl benzimidazole derivatives” (Il-Yang Pharm. Co., Ltd., priority 1994, dated 1996).
Like-named read-outs stand apart in the source and are kept apart here.

System: ICR (male, female) mouse
Details: oral, 14 days
Procedure: Five weeks aged ICR (male, female) mouse were pre-bred in the breeding cage for one week and then the animals showing a smooth gain in body weight were randomly selected and used in this test. The amount to be administered to the test animals was established on the basis of the maximum dose of 5,000 mg/kg with the common ratio of 1.5.
The test compounds in a powder were suspended in 0.5% methylcellulose and administered per oral using a lml syringe. The other specific conditions for administration are described in the following.
In the above test, the control group received only 0.5% methylcellulose.
(1) Clinical symptoms and death of test animals
The clinical symptoms and death of test animals caused by the test compounds were recorded immediately after administration of the test compounds and during the overall test period.

Measured: Lethality

COc1ccc2[nH]c([S+]([O-])Cc3ncc(C)c(OC)c3C)nc2c1 (stereo not drawn) [Omeprazole, 5-methoxy-2-[[(4-methoxy-3,5-dimethyl-2-pyridinyl)methyl]sulfinyl]-1H-benzimidazole]
0/5: female mouse, 987 mg/kg | female mouse, 1481 mg/kg | female mouse, 2222 mg/kg | female mouse, 3333 mg/kg | female mouse, 5000 mg/kg | male mouse, 1481 mg/kg | male mouse, 2222 mg/kg | male mouse, 3333 mg/kg | male mouse, 5000 mg/kg
